Patent publication US10087191B2, “Piperidine derivative and preparation method and pharmaceutical use thereof” (Jiangsu Hengrui Medicine Co., Ltd., priority 2015, dated 2018)

Sequences of proteins named here, by UniProt entry; tags and fusion partners are left off.
UniProt P03372, whole entry: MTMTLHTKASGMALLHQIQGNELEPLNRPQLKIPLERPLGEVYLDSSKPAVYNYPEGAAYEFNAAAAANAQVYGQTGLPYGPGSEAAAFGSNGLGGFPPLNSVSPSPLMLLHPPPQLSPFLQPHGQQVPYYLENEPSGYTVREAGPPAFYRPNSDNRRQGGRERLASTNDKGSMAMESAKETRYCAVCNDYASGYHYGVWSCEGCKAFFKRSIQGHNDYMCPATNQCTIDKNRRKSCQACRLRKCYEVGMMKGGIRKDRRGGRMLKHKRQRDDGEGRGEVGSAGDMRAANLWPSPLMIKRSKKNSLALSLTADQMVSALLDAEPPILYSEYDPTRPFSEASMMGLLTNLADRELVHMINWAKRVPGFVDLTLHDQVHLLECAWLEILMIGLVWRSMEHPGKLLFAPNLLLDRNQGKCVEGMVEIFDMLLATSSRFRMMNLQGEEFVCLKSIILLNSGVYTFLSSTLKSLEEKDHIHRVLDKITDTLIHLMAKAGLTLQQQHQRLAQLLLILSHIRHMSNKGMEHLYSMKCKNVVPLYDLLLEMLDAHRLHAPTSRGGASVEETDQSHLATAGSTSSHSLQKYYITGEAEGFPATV

Legend:
Type in all cases: cell-based
MCF7 cells = assay: Inhibition of the proliferation of MCF7 cells (Cell Titer-Glo); settings: Homo sapiens, MCF-7 cells, 72 hours, read-out: IC50 value of inhibition effect on the proliferation of MCF7 cells
Procedure: The object of this experiment was to determine the inhibition effect of the compounds on the proliferation activity of MCF7 cells, and the in vitro activity of the compounds was evaluated according to the IC50 value.
After incubation for 24 hours, the medium was removed, then 90 μl of the medium containing 2% FBS and 10 μl of the drug were added to each well, 10 μl of DMSO were added to the control group, and the blank group contained only 100 μl medium containing 2% FBS. The plate was gently shaken and incubated in a incubator at 37° C., 5% CO2. After 72 hours, 50 μl of mixed Cell Titer-Glo (Promega, Cat. No. G7571) were added to each well. The plate was shaken until the ingredients were well mixed, and placed at room temperature for 10 minutes, then the chemiluminescence signal value was determined.
The values of the chemiluminescence signals vs the logarithmic concentrations of the compounds were plotted using Graghpad Prism to obtain IC50 values.

ERα = ERα (Homo sapiens (Human), UniProt P03372); assay: Degradation effect on ERα in MCF-7 cells (ERα Duoset ELISA); settings: read-out: IC50 value of the degradation effect on ERα
Procedure: In order to determine the degradation effect on ER induced by the compounds of the present invention, the following method was used to determine the degradation effect of the compounds of the present invention on ER.
MCF-7 cell line (TChu 74, Cell Bank of Chinese Academy of Sciences typical culture preservation Committee)
ERα Duoset Kit (#DYC5715E, R&D System)
MCF-7 cells were incubated in DMEM/F-12 medium containing 10% FBS.
On the first day of the experiment, MCF-7 cells were resuspended in DMEM/F-12 medium containing 10% FBS treated by activated carbon, then inoculated into a 48-well plate with a density of 50,000 cells/well and incubated for 22-24 hours.
On the second day of the experiment, the test compound was diluted with medium and added to a 48-well plate. The ERα-capture antibody was diluted to 1 μg/ml with PBS, and added to a 96-well plate at 100 μl/well. The plate was sealed and coated overnight at room temperature.
On the third day of the experiment, the coated 96-well plate was washed twice with PBS, added with a sealing solution (1% BSA in PBS) at 110 μl/well and sealed for 1 hour at room temperature. The 48-well plate was washed once with PBS, and the residual liquid was removed. Then, 60 μl of lysis (6 M urea, 1 mM EDTA, 0.5% Triton X-100, 1 mM PMSF, Protease Inhibitor cocktail) was added to each well. After lysis on ice for 15 minutes, the diluent (1 mM EDTA, 0.5% TritonX-100 dissolved in PBS) was added. The cell-diluted lysate was transferred to a 96-well plate at 100 μl/well, then the plate was incubated at room temperature for 2 hours. The diluted primary antibody was added after the plate was washed 4 times with a washing liquid (PBST). After incubation for 1 hour, the 96-well plate was washed 4 times, and the second antibody was added, then the plate was incubated for 30 minutes. After the plate was washed with a washing liquid, TMB chromogenic solution was added and incubated for 15 minutes. The reaction was stopped by the addition of 1 M H2SO4, then the light absorption at 450 nm was read.

estrogen receptor (ER) = estrogen receptor (ER) (Homo sapiens (Human), UniProt P03372); assay: Inhibition of the binding of estrogen (E) to estrogen receptor (ER), MCF-7/ERE-luciferase reporter cells; settings: MCF-7/ERE-luciferase cells, 0.1 nM estradiol, 24 hours; read-out: IC50 value of inhibition effect on the binding of E to ER
Procedure: The inhibition effect of the compounds on the binding of E to ER in vitro was tested by the following method.
The object of this experiment was to determine the inhibition effect of the compounds on the binding of E to ER, and the in vitro activity of the compounds was evaluated according to the IC50 value.
MCF-7/ERE-luciferase cells were inoculated into the MEM medium (hyclone, SH30024.01B) containing 10% charcoal stripped FBS (Moregate, FBSF), 1% sodium pyruvate (Sigma, Cat. No. S8636), 1% nonessential amino acids (Sigma, Cat. No. M7145) and 500 μg/ml G418 in a 96-well plate with a density of 30,000 cells/well, and the cells were incubated under the conditions of 37° C. and 5% CO2. […] After incubation for 24 hours, the medium was removed, then 0.1 nM estradiol (Sigma, Cat. No. E2758) and 10 μl of the drug diluted with the medium were added to each well, and the control group was added with DMSO. The plate was gently shaken and incubated in a incubator at 37° C., 5% CO2. After 24 hours, the cell culture medium was discarded.
The inhibition effect of the compounds of the present invention on the binding of E to ER was tested by the experiment described above.

SMILES	IC50 (MCF7 cells)	DC50 (ERα; MCF-7 cells)	IC50 (estrogen receptor (ER))	DC50 (ERα)
C[C@@H]1Cc2cc(C#Cc3cnn(C)c3)ccc2[C@@H](c2c(F)cc(/C=C/C(=O)O)cc2F)N1CC(C)(C)F [Example 8, (E)-3-(3,5-difluoro-4-((1S,3R)-2-(2-fluoro-2-methylpropyl)-3-methyl-6-((1-methyl-1H-pyrazol-4-yl)ethynyl)-1,2,3,4-tetrahydroisoquinolin-1-yl)phenyl)acrylic acid]	1.58 nM	–	–	–
C[C@H]1Cc2cc(C#Cc3cnn(C)c3)ccc2[C@H](c2c(F)cc(/C=C/C(=O)O)cc2F)N1CC(C)(C)F [Example 9, (E)-3-(3,5-difluoro-4-((1R,3S)-2-(2-fluoro-2-methylpropyl)-3-methyl-6-((1-methyl-1H-pyrazol-4-yl)ethynyl)-1,2,3,4-tetrahydroisoquinolin-1-yl)phenyl)acrylic acid]	1.59 nM	–	–	–
Cc1ncc(-c2ccc3c(c2)CC(C)N(CC(C)(C)F)C3c2c(F)cc(/C=C/C(=O)O)cc2F)s1 [Example 10, (E)-3-(3,5-difluoro-4-((1S,3R/1R,3S)-2-(2-fluoro-2-methylpropyl)-3-methyl-6-(2-methylthiazol-5-yl)-1,2,3,4-tetrahydroisoquinolin-1-yl)phenyl)acrylic acid]	–	6.58 nM	–	–
Cc1ncc(-c2ccc3c(c2)C[C@@H](C)N(CC(C)(C)F)[C@@H]3c2c(F)cc(/C=C/C(=O)O)cc2F)s1 [Example 11, (E)-3-(3,5-difluoro-4-((1S,3R)-2-(2-fluoro-2-methylpropyl)-3-methyl-6-(2-methylthiazol-5-yl)-1,2,3,4-tetrahydroisoquinolin-1-yl)phenyl)acrylic acid]	–	2.02 nM	0.64 nM	–
Cc1ncc(-c2ccc3c(c2)C[C@H](C)N(CC(C)(C)F)[C@H]3c2c(F)cc(/C=C/C(=O)O)cc2F)s1 [Example 12, (E)-3-(3,5-difluoro-4-((1R,3S)-2-(2-fluoro-2-methylpropyl)-3-methyl-6-(2-methylthiazol-5-yl)-1,2,3,4-tetrahydroisoquinolin-1-yl)phenyl)acrylic acid]	–	–	56.5 nM	–
CCn1cc(-c2ccc3c(c2)CC(C)N(CC(C)(C)F)C3c2c(F)cc(/C=C/C(=O)O)cc2F)cn1 [Example 20, (E)-3-(4-((1S,3R/1R,3S)-6-(1-ethyl-1H-pyrazol-4-yl)-2-(2-fluoro-2-methylpropyl)-3-methyl-1,2,3,4-tetrahydroisoquinolin-1-yl)-3,5-difluorophenyl)acrylic acid]	–	0.82 nM	–	–
CCn1cc(-c2ccc3c(c2)C[C@@H](C)N(CC(C)(C)F)[C@@H]3c2c(F)cc(/C=C/C(=O)O)cc2F)cn1 [Example 21, (E)-3-(4-((1S,3R)-6-(1-ethyl-1H-pyrazol-4-yl)-2-(2-fluoro-2-methylpropyl)-3-methyl-1,2,3,4-tetrahydroisoquinolin-1-yl)-3,5-difluorophenyl)acrylic acid]	–	0.67 nM	0.32 nM	–
CC1Cc2cc(-c3cn[nH]c3)ccc2C(c2c(F)cc(/C=C/C(=O)O)cc2F)N1CC(C)(C)F [Example 24, (E)-3-(3,5-difluoro-4-((1S,3R/1R,3S)-2-(2-fluoro-2-methylpropyl)-3-methyl-6-(1H-pyrazol-4-yl)-1,2,3,4-tetrahydroisoquinolin-1-yl)phenyl)acrylic acid]	0.46 nM	–	–	0.12 nM
C[C@@H]1Cc2cc(-c3cn[nH]c3)ccc2[C@@H](c2c(F)cc(/C=C/C(=O)O)cc2F)N1CC(C)(C)F [Example 25, (E)-3-(3,5-difluoro-4-((1S,3R)-2-(2-fluoro-2-methylpropyl)-3-methyl-6-(1H-pyrazol-4-yl)-1,2,3,4-tetrahydroisoquinolin-1-yl)phenyl)acrylic acid]	–	0.21 nM	0.51 nM	–

Like-named read-outs stand apart in the source and are kept apart here.
